Earlier results in Sander's compilation of Henry's law constants (doi:10.1016/0045-6535(88)90142-7).

Test: Henry solubility constant Hcp at 298.15 K (mol/(m3 Pa))
Details: reference: Ryan et al. (1988); cited value

CCl [chloromethane]
Henry solubility constant Hcp: 2.5e-05
